Results reported in patent publication US9914869B2, “System and method for inhibiting scale formation in oil wells” (GLOBAL GREEN PRODUCTS LLC, priority 2012, dated 2018).

Key:
[1] = system: Acartia tonsa; conditions: in vivo
[2] = system: Skeletonema costatum; conditions: in vivo

## polyaspartate [aspartic acid based polymer]
[1]
  Acartia tonsa EC50 48h: >9,000 mg/L
[2]
  Skeletonema costatum EC50 72h: >10,000 mg/L
